Data published in patent US6716422B1, “Vaccine adjuvants for immunotherapy of melanoma” (ARCH Development Corporation, priority 1998, dated 2004).

What was measured:
[1] = tested on: refractory metastatic melanoma; assay: Human vaccination study: clinical outcome; assay type: in vivo; conditions: one line per patient
Source text: Evaluation of tumor regression is a secondary endpoint in this study. Tumor masses are characterized carefully with bidimensional measurements.
Criteria for a Partial Response (PR): 50% reduction in the sum of the product of the largest perpendicular diameters of the indicator lesions identified prior to therapy.
Criteria for a Complete Response (CR): total disappearance of all evidence of tumor without appearance of new lesions.
Criteria for Progressive Disease (PD): appearance of new lesions; and/or fifty percent increase in the sum of the product of the largest perpendicular diameters of the indicator lesions. This cutoff has been chosen because initial increases in tumor size followed by tumor shrinkage have been observed in the first MAGE-3 peptide immunization experience; and/or reappearance of any tumor.
Criteria for Stable Disease (SD): Failure to meet the criteria for a Partial Response, Complete Response, or Progressive Disease.
Data for clinical responses are also presented.

[2] = tested on: peptide-specific, IFN-γ-producing CD8+ T cells; assay: Human vaccination study: peptide-specific T cell response; conditions: for Evidence Immunized?: one line per patient
[3] = tested on: metastatic renal cell carcinoma; conditions: human, in vivo; cited from earlier work

Substance: AAGIGILTV [MelanA]
- Clinical Outcome ([1]; IL-12 dose 0): PR (50% reduction in the sum of the product of the largest perpendicular diameters of the indicator lesions identified prior to therapy)
- Clinical Outcome ([1]; IL-12 dose 30 ng/kg): PD (appearance of new lesions; and/or fifty percent increase in the sum of the product of the largest perpendicular diameters of the indicator lesions)
- Clinical Outcome ([1]; IL-12 dose 100 ng/kg): PD (appearance of new lesions; and/or fifty percent increase in the sum of the product of the largest perpendicular diameters of the indicator lesions)
- Evidence Immunized? ([2]; IL-12 dose 0): Yes
- Evidence Immunized? ([2]; IL-12 dose 30 ng/kg): Yes
- Timing of detection of specific responses ([2]; compared between antigens): detected earlier than Mage3-specific responses

Substance: IL-2: T cell growth factor IL-2
- Response rates [3]: 15-20%
